This note sets out measurements from ChEMBL document CHEMBL4428133, “Tyrosyl-DNA phosphodiesterase inhibitors: Progress and potential” (Bioorg Med Chem, 2016).

Protein sequences, listed by entry. Tags and fused reporters are not part of them.
UniProt Q9NUW8, whole entry: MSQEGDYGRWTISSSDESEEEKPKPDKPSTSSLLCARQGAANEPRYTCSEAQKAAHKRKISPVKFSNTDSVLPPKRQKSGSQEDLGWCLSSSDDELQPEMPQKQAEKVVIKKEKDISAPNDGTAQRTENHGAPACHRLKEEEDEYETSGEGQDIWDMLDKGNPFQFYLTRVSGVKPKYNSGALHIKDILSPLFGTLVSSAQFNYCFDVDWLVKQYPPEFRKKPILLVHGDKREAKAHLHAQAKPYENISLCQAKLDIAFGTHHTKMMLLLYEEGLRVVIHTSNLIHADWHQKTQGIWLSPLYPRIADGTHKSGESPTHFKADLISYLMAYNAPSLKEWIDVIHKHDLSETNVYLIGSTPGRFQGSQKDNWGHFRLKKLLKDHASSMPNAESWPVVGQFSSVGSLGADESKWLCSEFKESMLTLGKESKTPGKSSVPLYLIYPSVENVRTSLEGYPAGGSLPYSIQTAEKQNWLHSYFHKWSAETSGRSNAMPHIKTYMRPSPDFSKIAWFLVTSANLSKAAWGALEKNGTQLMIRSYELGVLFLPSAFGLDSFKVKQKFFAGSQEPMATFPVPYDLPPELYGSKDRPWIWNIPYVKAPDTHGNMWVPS

In the assay the target is Tyrosyl-DNA phosphodiesterase 1 (Homo sapiens, UniProt Q9NUW8). As to the kind of experiment: Inhibition of recombinant TDP1 (unknown origin) using 5'-32P-labeled N14Y DNA substrate incubated for 20 mins by PAGE analysis.

The structures appear in SMILES notation.

As to `O=C(O)C1=CC(=C(c2ccc(O)c(C(=O)O)c2)c2ccc(O)c(C(=O)O)c2)C=CC1=O` [AURINTRICARBOXYLIC ACID], the IC50 stood at 12 nM.

Broadly, the IC50 is the concentration that inhibits the measured activity by half.
